Laboratory results as given in PubChem BioAssay AID602250 (The Scripps Research Institute Molecular Screening Center, 2012).
Only a part is listed here, and it is no random draw. Activity calls are given as the source filed them.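 The calls were made as follows: active = inhibition above a per-plate cutoff, the plate's mean sample inhibition plus 3 SD (cut at about 24% in these data); inactive = the rest.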

Test: calcium signal blockers in parental CHO-K1 cells – cell-based, Fluo-8 calcium fluorescence, full deck, 1536-well, counter-screen for M1 antagonist project, primary screen (AID 602250);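 also: 0% = DMSO plus EC80 ATP and 100% = DMSO alone without ATP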
Conditions: ATP-induced calcium, Fluo-8 fluorescence, at 3 µM, stronger effect = higher value
With CC1CCN(C(=O)Oc2c(Cl)cc(Cl)c3cccnc23)CC1 the inhibition was inactive: 4.58%. In the case of c1cc(-c2nn[nH]n2)ccc1-c1nn[nH]n1, the inhibition is reported as inactive: -3.43%. In the case of CN(C)C(=O)OCCc1n(C)cc[n+]1C, the inhibition is reported as inactive: -6.58%. For CC(C)c1nc(Nc2ccccc2)n(P(=O)(N(C)C)N(C)C)n1, the inhibition was inactive: -7.2%. With CC(C)=N/N=C(\N)N[N+](=O)[O-] the inhibition was inactive: -2%. With CCN(/C(=N/P(=O)(N1CCOCC1)N1CCOCC1)N1CCOCC1)c1ccc(OC)cc1 the inhibition was inactive: -4.77%. In the case of C[N+]1=C2C=CC=CC=C2SC12C([N+](=O)[O-])=CC([N+](=O)[O-])=C[C-]2[N+](=O)[O-] (stereo not drawn), the inhibition is reported as active: 34.5%. With Nc1ccc([As](=O)(O)c2ccc(N)cc2)cc1 the inhibition was inactive: -5.69%. In the case of CCc1nc2c(n1)c1c(non1O)c1c2no[n+]1[O-], the inhibition is reported as inactive: -5.21%. With O=[N+]([O-])c1cc([N+](=O)[O-])c(CCNc2ccccc2)c([N+](=O)[O-])c1 the inhibition was inactive: -12.4%. For Cc1ccc(NP(=O)(Oc2ccccc2)Oc2ccccc2)nc1, the inhibition was inactive: -4.85%. For O=[N+]([O-])c1cccc2n[nH]nc12, the inhibition was inactive: 19.1%. In the case of CC(=O)N1C2C3N(C(C)=O)C1C1N(C(C)=O)C(C(N1C(C)=O)N3C(C)=O)N2C(C)=O, the inhibition is reported as inactive: -4.34%. In the case of COc1ccc(C2=NCC(CBr)S2)cc1 (stereo not drawn), the inhibition is reported as inactive: -13.9%. In the case of O=C(O)CNc1ccc([As](=O)(O)O)cc1, the inhibition is reported as inactive: -6.43%. For C/C=C1/C[C@@H](C)[C@](O)(CO)C(=O)OCC2=CCN3CC[C@@H](OC1=O)[C@@H]23, the inhibition was inactive: -3.34%. For COC(=O)C1(C)COP(=O)(Nc2ccccc2)OC1 (stereo not drawn), the inhibition was inactive: -6.54%. For O=[N+]([O-])c1cccc(NC2=NCC(CBr)S2)c1 (stereo not drawn), the inhibition was inactive: -2.94%. With O=[N+]([O-])c1ncn(CCn2ncnc2[N+](=O)[O-])n1 the inhibition was inactive: -0.74%. In the case of CC(C)(C)C(=O)NC(Sc1ccncn1)C(Cl)(Cl)Cl (stereo not drawn), the inhibition is reported as inactive: -12.2%. With O=C(Nc1cc([As](=O)(O)O)ccc1O)c1ccccc1 the inhibition was inactive: -18.3%. With O=P1(N(CCCl)CCCl)OCCCS1 (stereo not drawn) the inhibition was inactive: -2.29%. For Nc1cccc2ccc([As](=O)(O)O)cc12, the inhibition was inactive: -3.27%. With CCN(N=Nc1nonc1N)c1nonc1N the inhibition was inactive: -13.3%. For Cc1ccc(NP(=O)(Oc2ccccc2F)Oc2ccccc2F)nc1, the inhibition was inactive: -0.53%. With CN(C(=O)Cc1ccc(Cl)c(Cl)c1)[C@H]1CCCC[C@@H]1N1CCCC1 the inhibition was inactive: -0.46%. In the case of Cc1cc(SC(NC(=O)c2ccc(F)cc2)C(Cl)(Cl)Cl)ncn1 (stereo not drawn), the inhibition is reported as inactive: -3.64%. For CCOP(=O)(Nc1ccccc1)OCC, the inhibition was inactive: 10.1%. With O=P(Nc1nc2ccc(Cl)cc2s1)(c1ccccc1)c1ccccc1 the inhibition was inactive: 13.3%. For CN(C)P(=O)(N(C)C)n1c(Nc2ccccc2)nnc1-c1ccccc1, the inhibition was inactive: 1.5%. For CCCC1OP(N)(=O)OCC1CC (stereo not drawn), the inhibition was inactive: -15.7%. For CC(=O)O[C@]1(C)C(=O)OC/C2=C/CN(C)CCC(OC(=O)[C@@](O)(C(C)O)C[C@H]1C)C2=O (stereo partly drawn), the inhibition was inactive: -8.3%. In the case of CC(=O)Nc1ccc([As](=O)(O)O)cc1, the inhibition is reported as inactive: -4.21%. In the case of O=C(O)c1ccccc1[As](=O)(O)O, the inhibition is reported as inactive: 0.49%. For O=[N+]([O-])C1C(O)C(O)C([N+](=O)[O-])C(O)C1O (stereo not drawn), the inhibition was inactive: -7.56%. In the case of O=C(NC(Sc1ccncn1)C(Cl)(Cl)Cl)c1ccccc1 (stereo not drawn), the inhibition is reported as inactive: -14.1%. In the case of Oc1ccccc1CNc1ccccn1, the inhibition is reported as inactive: -15.3%. In the case of Nc1cc(N)c2nonc2c1[N+](=O)[O-], the inhibition is reported as inactive: 0.61%. With CC(C)CC(=O)NC(Sc1ccc(Cl)cc1)C(Cl)(Cl)Cl (stereo not drawn) the inhibition was inactive: -0.38%. For CN1CCCC(OC(=O)C(c2ccccc2)c2ccccc2)C1 (stereo not drawn), the inhibition was inactive: -1.46%. For Clc1ccc(Cl)c(NC2=NCC(CBr)S2)c1 (stereo not drawn), the inhibition was inactive: -0.43%. In the case of Cc1ccc(OP(=O)(Nc2nccs2)Oc2ccc(C)cc2)cc1, the inhibition is reported as inactive: -15.2%. In the case of COc1ccccc1OP(=O)(Nc1ccc(C)cn1)Oc1ccccc1OC, the inhibition is reported as inactive: 13.6%. With CC(C)[C@H]1C(=O)O[C@@H]2CCN3CC=C(COC(=O)[C@](C)(O)[C@]1(C)O)[C@H]23 the inhibition was inactive: -8.12%. With Cc1ccc(N/C(=N/P(=O)(N2CCOCC2)N2CCOCC2)N2CCOCC2)cc1 the inhibition was inactive: 12.7%. In the case of CN(C(=O)Cc1ccc(Cl)c(Cl)c1)[C@H]1CCCC[C@H]1N1CCCC1, the inhibition is reported as inactive: -4.69%. In the case of NC(=O)c1cc([N+](=O)[O-])cc([N+](=O)[O-])c1N, the inhibition is reported as inactive: -7.79%. With CC(=O)Nc1ccc(Oc2c([N+](=O)[O-])cc([N+](=O)[O-])cc2[N+](=O)[O-])cc1 the inhibition was inactive: -6.08%. In the case of CC(=O)Nc1ccc([As](=O)(O)O)c(O)c1, the inhibition is reported as inactive: -18.9%. With C[C@H]1OP(=O)(Oc2ccccc2)C[C@@H]2O[C@@H]21 (stereo partly drawn) the inhibition was inactive: -10.7%. In the case of C[C@@H]1C=CCP(=O)(Oc2ccccc2)O1 (stereo partly drawn), the inhibition is reported as inactive: -8.71%. In the case of Cc1ccccc1CN(C)C(=O)COC(=O)C(O)(c1ccccc1)c1ccccc1, the inhibition is reported as inactive: -7.26%. For CCN(CC)CCOC(=O)C(O)(c1ccccc1)c1ccccc1, the inhibition was inactive: -0.23%. For COC(=O)C1(C)COP(=O)(NCc2ccccc2)OC1 (stereo not drawn), the inhibition was inactive: 5.24%. For CC1C(=O)OC2CCN3CC=C(COC(=O)C(C)(O)C1(C)O)C23 (stereo not drawn), the inhibition was inactive: 4.65%. In the case of CC(=O)c1ccc(N2CC2c2ccncc2)cc1 (stereo not drawn), the inhibition is reported as inactive: -10.6%. In the case of N#C/C(=C\c1ccc(N(CCBr)CCBr)cc1)C(N)=O, the inhibition is reported as inactive: -11.7%. With CC(C)(C)C(=O)NC(Sc1ccccc1)C(Cl)(Cl)Cl (stereo not drawn) the inhibition was inactive: -10.1%. For CCc1cc(O)c([N+](=O)[O-])c(C)c1[N+](=O)[O-], the inhibition was inactive: -10.2%. For CCOc1ccc(C2=NCC(CBr)S2)cc1 (stereo not drawn), the inhibition was inactive: -12.3%. With O=c1c2cc([N+](=O)[O-])ccc2[nH]c2c([N+](=O)[O-])cc([N+](=O)[O-])cc12 the inhibition was inactive: 5.76%. For CN(C)C(=O)Oc1noc2ccccc12, the inhibition was inactive: -7.42%. In the case of CC(NC(=O)COC(=O)C(O)(c1ccccc1)c1ccccc1)c1ccccc1 (stereo not drawn), the inhibition is reported as inactive: -4.99%.
